Holding throughout (format): cell-based
For one experiment, the system named is Alternaria alternata. The experiment can be described thus: Volatile MIC assay (Example 11).
The subject of the next experiment is Monilinia fructicola. The experiment can be described thus: Volatile MIC assay (Example 9). The conditions noted are these: 72 h, read-out: MIC (mg/L) MONIFC. As for the experimental part: (§1) A 3-mL volume of full-strength Potato Dextrose Agar (PDA) is added to each well. […] Plates are inoculated immediately prior to volatile fungicide treatment. A Whatman #1 filter disk (Cat. No. 1001-0155) is placed, in duplicate, on the underside of a polyethylene PCR plate sealing film. […] The acetone is permitted to evaporate for 5 minutes. The headspace around the inoculum is then sealed inside the well by the film with the adhering disk containing the fungicide by inverting the plates over the treated disks and sealing to prevent any of the chemical from flaking from the disk and falling onto the inoculated agar.

Experiment [1] relates to Glomerella cingulata. Description: Volatile MIC assay (Example 9). The conditions noted are these: Colletotrichum gloeosporioides, 72 h, read-out: MIC (mg/L) GLOMCI. Here is the method:
as §1

Experiment [2] concerns Botrytis cinerea. The experiment can be described thus: Volatile MIC assay (Example 9). The conditions noted are these: 72 h, read-out: MIC (mg/L) BOTRCI. As for the experimental part:
as §1

In experiment [3] the test system is Penicillium expansum. Description: Volatile MIC assay (Example 9). The settings on record: 72 h, read-out: MIC (mg/L) PENIEX. As for the experimental part:
as §1

In experiment [4] the test system is Penicillium expansum. The experiment can be described thus: Volatile MIC assay (Example 11).
In another experiment the test system is Colletotrichum acutatum. Description: Volatile MIC assay (Example 11).
Experiment [5] has as its system Botrytis cinerea. The experiment can be described thus: Volatile MIC assay (Example 11).
The test system of a further experiment is Monilinia fruticola. Description: Volatile MIC assay (Example 11).
The test system of another experiment is Geotrichum candidum. Description: Volatile MIC assay (Example 11).
A further experiment deals with B. cinerea. Description: In vitro contact assay, amended agar (Example 24). The conditions noted are these: Botrytis cinerea, 72 h, read-out: Contact MIC (mg/L) B. cinerea. Here is the method:
(§2) Contact assay: 6-well (16.5 mL volume per well) microtiter plates are used for an in vitro inhibition assay. […] A 7.5-mL volume of the amended media is added to each well of the microtiter plate. […] The plates are sealed with a clear film and incubated for 3 days at 23° C. After incubation, plates are evaluate for percent growth relative to acetone only control.

The next experiment relates to P. expansum. The experiment can be described thus: In vitro contact assay, amended agar (Example 24). The conditions noted are these: Penicillium expansum, 72 h, read-out: Contact MIC (mg/L) P. expansum. Here is the method: as §2
Experiment [6] has as its system Glomerella cingulata. The experiment can be described thus: Volatile MIC assay (Example 11). The conditions noted are these: Colletotrichum gloeosporioides.
For a further experiment, the system named is Aspergillus niger. The experiment can be described thus: Volatile MIC assay (Example 11).
The test system of another experiment is Diplodia gossypina. Description: Volatile MIC assay (Example 11). The settings on record: Lasiodiplodia theobromae.
In another experiment the test system is Aspergillus brasiliensis. Description: Volatile MIC assay (Example 11).
A further experiment has as its system M. piriformis. Description: Volatile MIC assay (Example 11). The settings on record: Mucor piriformis.
In a further experiment the test system is Fusarium sambucinum. Description: Volatile MIC assay (Example 11).
The subject of experiment [7] is Botrytis cinerea. Description: In vitro volatile assay (Example 24). The settings on record: 72 h, read-out: Volatile MIC (mg/L) B. cinerea. Here is the method: (§3) Volatile assay: 12-well (6.5 mL volume per well) microtiter plates are used. A 3-mL volume of half strength PDA is added to each well. […] A Whatman #1 filter disk (Cat. No. 1001-0155) is placed, in duplicate, on the underside of a polyethylene PCR plate sealing film. […] The acetone is permitted to evaporate for 5 minutes. The headspace around the inoculum is then sealed inside the well by the film with the adhering disk containing the fungicide. Plates are inverted, placed over the treated disks, and sealed to prevent any of the chemical from flaking from the disk and falling onto the inoculated agar. […] Contact assay: 6-well (16.5 mL volume per well) microtiter plates are used for an in vitro inhibition assay. […] A 7.5-mL volume of the amended media is added to each well of the microtiter plate. […] The plates are sealed with a clear film and incubated for 3 days at 23° C. After incubation, plates are evaluate for percent growth relative to acetone only control.

Experiment [8] deals with Penicillium expansum. The experiment can be described thus: In vitro volatile assay (Example 24). The settings on record: 72 h, read-out: Volatile MIC (mg/L) P. expansum. As for the experimental part:
as §3

The test system of a further experiment is Penicillium digitatum. Description: Volatile MIC assay (Example 11).

SMILES strings stand for the structures. Converted amounts (≈) assume the structure as drawn.

In the case of `OB1OCc2ccccc21` [Compound B2, 2-(hydroxymethyl)phenylboronic acid cyclic monoester], the MIC in the experiment with Alternaria alternata came out at 2.2 µg/mL (≈ 16.4 µM); in the experiment with Monilinia fructicola it was 2.2 mg/L (≈ 16.4 µM); with Glomerella cingulata [1], 35.7 mg/L (≈ 267 µM); with Botrytis cinerea [2] it was 4.5 mg/L (≈ 33.6 µM); in the experiment with Penicillium expansum [3], 17.9 mg/L (≈ 134 µM); against Penicillium expansum [4], 8.9 µg/mL (≈ 66.4 µM). The MIC was 8.9 µg/mL (≈ 66.4 µM) with Colletotrichum acutatum; 4.5 µg/mL (≈ 33.6 µM) against Botrytis cinerea [5]; 1.1 µg/mL (≈ 8.21 µM) in the experiment with Monilinia fruticola; 8.9 µg/mL (≈ 66.4 µM) with Geotrichum candidum; 10 mg/L (≈ 74.7 µM) in the experiment with B. cinerea; 2 mg/L (≈ 14.9 µM) with P. expansum. For the same compound, the MIC in the experiment with Glomerella cingulata [6] stood at 35.7 µg/mL (≈ 267 µM); against Aspergillus niger, 1.1 µg/mL (≈ 8.21 µM); against Diplodia gossypina, 4.5 µg/mL (≈ 33.6 µM); against Aspergillus brasiliensis it was 0.6 µg/mL (≈ 4.48 µM); against M. piriformis, 2.2 µg/mL (≈ 16.4 µM); against Fusarium sambucinum, 4.5 µg/mL (≈ 33.6 µM). Moreover, the MIC in the experiment with Botrytis cinerea [7] was found to be 4.5 mg/L (≈ 33.6 µM); in the experiment with Penicillium expansum [8] it was 17.9 mg/L (≈ 134 µM); against Penicillium digitatum it was 4.5 µg/mL (≈ 33.6 µM).

(Values after patent publication US12329158B2, “Large-scale methods of uniformly coating packaging surfaces with a volatile antimicrobial to preserve food freshness” (AGROFRESH INC., priority 2013, dated 2025).)
